# Measured affinities in a library of Ab-91 heavy chain variants

Target peptide (SARS-CoV-2 spike, HR2 region): PDVDLGDISGINAS

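The parent was found by panning a naive human phage display library on the peptide. AAYL51 was designed without a model: most single CDR substitutions and a random sample of double and triple ones. The scFvs were displayed on barcoded MATa yeast, the peptide on MATalpha yeast. Pairs that bind mate more often; barcode pairs of the diploids are counted by sequencing. Scores were corrected for input abundance and mapped to Kd with protein pairs of known affinity run in the same pool. Each pool was mated in three replicate cultures.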

Each scFv is VL, the linker GGGGSGGGGSGGGGS, VH, as in the parent Ab-91, and differs from it in the CDRs of the heavy chain only.
VL: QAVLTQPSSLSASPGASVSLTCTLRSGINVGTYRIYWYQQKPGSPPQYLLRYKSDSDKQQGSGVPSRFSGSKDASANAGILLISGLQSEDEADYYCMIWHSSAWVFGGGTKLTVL
VH: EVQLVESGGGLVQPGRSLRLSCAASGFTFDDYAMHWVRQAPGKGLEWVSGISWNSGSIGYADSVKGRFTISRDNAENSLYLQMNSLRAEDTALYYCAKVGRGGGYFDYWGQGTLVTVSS

Positions count from residue 1 of the parent VH; D31N puts N in place of D.
This list gathers variants with a substitution at G102 (VH, numbered from residue 1).
Affinities are written as log10 Kd with Kd in nM; a lower number is a better binder.
A mean of the replicates is given; it leaves out those without a signal.
Where no diploid with the target was found in that replicate, the entry reads "nd": below detection, most likely a poor binder, though not proof of it.

The variant D31N+N54D+G102P showed 4.05, nd, 4.37 (mean 4.21).
The variant G59P+G102K+Y108I showed nd, nd, nd.
The variant M34Y+G56R+G102N showed 3.87, nd, nd.
The variant H35F+S63E+G102E showed nd, 4.88, 3.54 (mean 4.21).
The variant N54A+V64K+G102Q showed nd, nd, nd.
The variant A61D+K65C+G102R showed 3.74, nd, nd.
The variant T28F+S55D+G102Q showed nd, nd, nd.
The variant S52W+G102K+G103W showed 5.62, nd, 4.52 (mean 5.07).
The variant N54Q+G102Y showed nd, nd, nd.
The variant G56K+V64T+G102W showed 4.93, nd, nd.
The variant G50H+I58M+G102C showed 5.94, 5.84, nd (mean 5.89).
The variant I51S+G102I showed nd, 4.83, nd.
The variant F27R+D30K+G102F showed 4.89, nd, nd.
The variant Y32I+G102K showed nd, nd, nd.
The variant A33P+G102D+Y108M showed nd, 3.05, nd.
The variant T28C+D62P+G102Q showed nd, 4.34, nd.
The variant F27E+Y60N+G102H showed nd, nd, nd.
The variant H35S+G56T+G102R showed nd, nd, nd.
The variant G102L+G103N+G104T showed 3.72, nd, nd.
The variant M34A+A61D+G102N showed nd, 4.04, nd.
The variant A33I+G100D+G102V showed nd, nd, nd.
The variant G26L+G102L showed 3.89, nd, nd.
The variant W53T+G59N+G102Y showed 5.12, nd, nd.
The variant H35A+D62Y+G102F showed nd, nd, nd.
The variant I58G+G102Q showed nd, nd, nd.
The variant Y60E+G102C+F106P showed nd, nd, nd.
The variant A61C+V64Q+G102Q showed nd, nd, nd.
The variant S52C+R101W+G102S showed nd, nd, nd.
The variant G59P+S63E+G102L showed 6.50, 4.43, nd (mean 5.46).
The variant G26C+G56F+G102C showed nd, nd, nd.
The variant K65P+G102R+G103T showed nd, nd, nd.
The variant W53T+G102R showed 2.25, 2.34, 1.61 (mean 2.07).
The variant T28R+N54R+G102S showed nd, 5.29, 5.45 (mean 5.37).
The variant G100F+R101E+G102D showed 4.33, 5.42, 3.56 (mean 4.44).
The variant T28K+V99Y+G102V showed nd, 6.25, 3.88 (mean 5.07).
The variant H35M+S52I+G102V showed nd, nd, nd.
The variant G100V+G102V showed nd, nd, nd.
The variant H35F+G100V+G102R showed 4.58, nd, nd.
The variant S55E+G102M showed 3.31, 3.91, 2.78 (mean 3.34).
The variant Y32H+G102K+Y105Q showed nd, 4.34, nd.
The variant F27K+S55R+G102Q showed nd, nd, nd.
The variant G56M+S63I+G102F showed nd, nd, nd.
The variant T28V+R101G+G102D showed nd, nd, nd.
The variant V64G+R101G+G102Y showed nd, nd, nd.
The variant W53L+G102Y+F106P showed nd, nd, nd.

A selection of 6 entries from above:

With T28R+N54R+G102S the result was nd, 5.29, 5.45 (mean 5.37).
With G100V+G102V the result was nd, nd, nd.
With A33P+G102D+Y108M the result was nd, 3.05, nd.
With K65P+G102R+G103T the result was nd, nd, nd.
With A61D+K65C+G102R the result was 3.74, nd, nd.
With G26L+G102L the result was 3.89, nd, nd.

Background: pairings of library AAYL51 with three empty control strains gave a value in 21% of cases (median 4.54, 5th percentile 3.26). Values in that range, when seen in few replicates, are hard to tell from nonspecific mating.

The measurements come from Engelhart et al. 2022 (doi:10.1038/s41597-022-01779-4) through the FLAb antibody collection.